Antibody variant affinities, Ab-14 heavy chain, assay 1

Binding partner: SARS-CoV-2 spike HR2 peptide, sequence PDVDLGDISGINAS.

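The starting antibody came from a phage panning campaign against this peptide. Variants in AAYL49 differ from the parent at up to three CDR positions; double and triple changes were sampled at random. The assay is AlphaSeq: two haploid yeast populations carry antibody and antigen on their surface. The frequency of each diploid, read from paired DNA barcodes, reflects how well the two displayed proteins bind. Each replicate has its own calibration line, from reference interactions of the BCL2 family. There are three technical replicates.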

The variants keep the light chain, the linker and the frameworks of Ab-14 (scFv order VH, three GGGGS repeats, VL).
VH: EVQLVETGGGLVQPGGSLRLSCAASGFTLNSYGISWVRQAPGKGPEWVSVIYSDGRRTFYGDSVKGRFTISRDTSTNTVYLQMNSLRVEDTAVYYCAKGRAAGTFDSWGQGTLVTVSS
VL: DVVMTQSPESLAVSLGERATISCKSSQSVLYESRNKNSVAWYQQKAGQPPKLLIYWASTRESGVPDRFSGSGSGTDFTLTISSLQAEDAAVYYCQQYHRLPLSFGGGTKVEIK

The parent's heavy chain CDRs are GFTLNSYGIS, VIYSDGRRTFYGDSVK, GRAAGTFDS; each variant's own CDRs replace them letter for letter.
Values are log10 of the apparent Kd in nM; lower means stronger binding.
Replicates are averaged; those with no signal do not enter the mean.
A pair that was not seen in that replicate is written "ND"; this usually means weak binding, but a binder can also be missed.
Three control strains display no target. For library AAYL49, 15% of the pairings with them gave a signal, with a median of 4.06 and one signal in twenty below 2.83, so weak values seen in few replicates may be background. Also given: how often the same scFv was detected with the empty control strains, with their mean in brackets.

| CDR-H1 | CDR-H2 | CDR-H3 | replicates, log10 nM | mean, log10 nM | control signals |
|---|---|---|---|---|---|
| TFGLNSWGIS | VIYSDGRRTFYGDSVK | GRAAGTFDS | ND ND ND | ND | 0/9 |
| GFTLNSYCIS | VIYSDGRRTFYGDSVK | GRAAMTFPS | 4.31 ND 4.13 | 4.22 | 2/9 (3.76) |
| GFTLNSYIIS | VIYRDGRRTFYGDSVK | GRAAGTFDS | ND ND ND | ND | 1/9 (2.46) |
| GFTLTSYGIS | VIYSDGRRQFYGDSVK | GRAAGTFDS | 1.71 1.60 1.71 | 1.67 | 0/9 |
| GFTLNSYGIS | VIYSDGRRTFWGDSVK | GRAARTCDS | ND ND ND | ND | 1/9 (3.61) |
| GFNLNSYGIS | VTYSDGRRTFYGDSVK | GRAAITFDS | ND 5.66 4.61 | 5.13 | 4/9 (4.17) |
| GFTLNSYGIV | VIYSDNRRTFYGDSVH | GRAAGTFDS | 5.11 ND 3.69 | 4.40 | 0/9 |
| GCTLNSYGIS | VINSDGRRTFYGSSVK | GRAAGTFDS | ND 5.55 4.98 | 5.27 | 2/9 (4.70) |
| GKTLNSYGIS | VEYSDGRRTFYGDSVK | GRAAGVFDS | ND 4.79 ND | 4.79 | 1/9 (4.19) |
| GFTLNSYGIS | VIYSDGRRTKYGDSPK | NRAAGTFDS | ND ND ND | ND | 0/9 |
| GFTLNPWGIS | VIYSDGRRTFYGDSVK | MRAAGTFDS | 4.55 3.36 ND | 3.95 | 6/9 (4.22) |
| GFTLNSYGIS | VIKSDGRRPFYGDSTK | GRAAGTFDS | ND ND ND | ND | 1/9 (3.26) |
| GGHYNSYGIS | VIYSDGRRTFYGDSVK | GRAAGTFDS | ND 3.79 ND | 3.79 | 2/9 (5.31) |
| GFTLNSYGIS | VIYSDGRRTFYGDSSK | GIAAGTFDE | ND ND 2.99 | 2.99 | 0/9 |
| GFTLNSYGIS | VIYSDGWRTFYGDSVK | GRAAGNFDS | ND ND ND | ND | 0/9 |
| GFTLNSYGIS | VIYSDGRRTFYADSVK | GRADGTFDS | ND ND ND | ND | 1/9 (3.29) |
| GFTLNSYGIS | VIKSDGRRTFHGDSVK | GRAPGTFDS | ND ND ND | ND | 1/9 (2.77) |
| RFTLNSYGIS | VIYSIGRRTFPGDSVK | GRAAGTFDS | 5.88 5.10 ND | 5.49 | 6/9 (4.10) |
| GFTLNSYGIS | VIYSDGRRKFYGDSVK | GHAAGTFDS | 0.67 0.83 0.67 | 0.72 | 0/9 |
| CFTLNSYVIS | SIYSDGRRTFYGDSVK | GRAAGTFDS | ND ND ND | ND | 0/9 |
| GNTLNRYGIS | VIYSDGRRFFYGDSVK | GRAAGTFDS | ND 3.69 ND | 3.69 | 0/9 |
| GFTANSYGIS | VIYSCGHRTFYGDSVK | GRAAGTFDS | ND 3.95 ND | 3.95 | 3/9 (4.05) |
| EFTLNMYGIS | VIYSDGRRTFYQDSVK | GRAAGTFDS | 0.95 0.86 0.58 | 0.80 | 0/9 |
| GFTLHSYGIS | VIYSDGRRTFYGDWVK | GRAAYTFDS | ND ND ND | ND | 4/9 (4.18) |
| GFALNSYGFS | VIYPDGRRTFYGDSVK | GRAAGTFDS | ND ND ND | ND | 2/9 (4.83) |
| GFTLNSYGIS | VIISDGRRTCYGDSVK | GRAAGTFDS | ND ND 4.28 | 4.28 | 2/9 (3.70) |
| GFTLNSSGIS | VIYSDGRRTFYGDSLK | GRAAGTFDS | 5.73 ND ND | 5.73 | 1/9 (4.07) |
| GFTLNSYGIS | VKYSDLRRTFYGDSVK | GRAAWTFDS | 4.82 3.63 ND | 4.22 | 5/9 (4.11) |
| GFTLNSYGIS | VIYSDGRRTFYGDHSK | GRAANTFDS | ND ND ND | ND | 1/9 (3.93) |
| GFTLNSYGIS | VQYSDGRPTFYIDSVK | GRAAGTFDS | ND ND ND | ND | 0/9 |
| GFTLNSYYIS | VIYSDLPRTFYGDSVK | GRAAGTFDS | 5.79 4.22 ND | 5.01 | 2/9 (4.08) |
| GFTLNSYGIK | VIYSDQRRTFYGDSVC | GRAAGTFDS | ND ND ND | ND | 1/9 (3.25) |
| GFTLNSYGWS | VIYSDGTRTFYGDSVK | GRAAGTFDS | ND ND 5.03 | 5.03 | 1/9 (3.98) |
| GLTLNSYGIS | VIYSDGQRTFYGDSVK | NRAAGTFDS | ND ND ND | ND | 1/9 (4.87) |
| GFTRNSYGIS | VIYSDDRRTFYGDSVK | GRAAGLFDS | ND ND ND | ND | 0/9 |
| GFTLNSYGIS | VIYSDGRRTEYGDQNK | GRAAGTFDS | 4.65 3.12 ND | 3.89 | 2/9 (4.49) |
| GFTLNSQGWS | VIYSDGRRTFYGDSVK | GRAAGDFDS | ND ND ND | ND | 2/9 (4.90) |
| GFTLNSYGIS | VIYSDGRRTFYGTSVK | GRAAGTYDS | ND ND ND | ND | 1/9 (2.60) |
| GFTLNSYGIH | VIYSDGRRTFLGDSVK | GGAAGTFDS | ND ND ND | ND | 0/9 |
| GRTLNSDGIS | VIYSDGRRTFYGDSVK | GRAAGTFDL | ND ND ND | ND | 2/9 (4.71) |
| GFTLNSYGIS | VIYSDGRRTFYGDSAK | GRAAGTFEN | ND ND ND | ND | 1/9 (4.22) |
| GFTLNSYGII | VIYSQGRRTFYGMSVK | GRAAGTFDS | ND 3.35 ND | 3.35 | 4/9 (4.73) |
| GFRLNSYGIS | VIASDGERTFYGDSVK | GRAAGTFDS | ND 4.08 ND | 4.08 | 2/9 (4.10) |
| GFTLNSYGIS | VIYSDGRRTFYPDSLK | GRAAETFDS | 2.41 ND ND | 2.41 | 0/9 |
| CFYLNSYGIS | VIYSDGRRTFYGDSVK | GRLAGTFDS | ND ND ND | ND | 0/9 |
| GFTLNSYGIS | VVYSDGRRTFYGDSVK | GRAAELFDS | ND ND ND | ND | 0/9 |
| LFTLNSYGKS | VIYSDGRWTFYGDSVK | GRAAGTFDS | ND ND ND | ND | 0/9 |
| GFTLRSYGIS | VIKSDGRWTFYGDSVK | GRAAGTFDS | ND ND ND | ND | 0/9 |
| GFTLAYKGIS | VIYSDGRRTFYGDSVK | GRAAGTFDS | ND ND ND | ND | 1/9 (2.56) |
| GFQLNSYGIS | VIYSDGRRTFYGTRVK | GRAAGTFDS | ND 1.75 3.96 | 2.86 | 1/9 (2.39) |
| GFTLNSYGIS | VIYSDGRDTFYGDSVK | FRAAWTFDS | ND ND ND | ND | 0/9 |

The first 6 entries again:

{"CDR-H1": "TFGLNSWGIS", "CDR-H2": "VIYSDGRRTFYGDSVK", "CDR-H3": "GRAAGTFDS", "replicates, log10 nM": "ND ND ND", "mean, log10 nM": "ND", "control signals": "0/9"}
{"CDR-H1": "GFTLNSYCIS", "CDR-H2": "VIYSDGRRTFYGDSVK", "CDR-H3": "GRAAMTFPS", "replicates, log10 nM": "4.31 ND 4.13", "mean, log10 nM": "4.22", "control signals": "2/9 (3.76)"}
{"CDR-H1": "GFTLNSYIIS", "CDR-H2": "VIYRDGRRTFYGDSVK", "CDR-H3": "GRAAGTFDS", "replicates, log10 nM": "ND ND ND", "mean, log10 nM": "ND", "control signals": "1/9 (2.46)"}
{"CDR-H1": "GFTLTSYGIS", "CDR-H2": "VIYSDGRRQFYGDSVK", "CDR-H3": "GRAAGTFDS", "replicates, log10 nM": "1.71 1.60 1.71", "mean, log10 nM": "1.67", "control signals": "0/9"}
{"CDR-H1": "GFTLNSYGIS", "CDR-H2": "VIYSDGRRTFWGDSVK", "CDR-H3": "GRAARTCDS", "replicates, log10 nM": "ND ND ND", "mean, log10 nM": "ND", "control signals": "1/9 (3.61)"}
{"CDR-H1": "GFNLNSYGIS", "CDR-H2": "VTYSDGRRTFYGDSVK", "CDR-H3": "GRAAITFDS", "replicates, log10 nM": "ND 5.66 4.61", "mean, log10 nM": "5.13", "control signals": "4/9 (4.17)"}

Data: MIT Lincoln Laboratory AlphaSeq set, Engelhart et al. 2022, doi:10.1038/s41597-022-01779-4, as distributed in FLAb.